Measurements: ChEMBL document CHEMBL5143642, “Thiosemicarbazone derivatives: Evaluation as cruzipain inhibitors and molecular modeling study of complexes with cruzain” (Bioorg Med Chem, 2022)

The chains behind the UniProt entries cited, without tags or fusion partners. Where a name states a change or a piece, a line headed by the entry shows the natural chain unless it says otherwise.
UniProt P25779: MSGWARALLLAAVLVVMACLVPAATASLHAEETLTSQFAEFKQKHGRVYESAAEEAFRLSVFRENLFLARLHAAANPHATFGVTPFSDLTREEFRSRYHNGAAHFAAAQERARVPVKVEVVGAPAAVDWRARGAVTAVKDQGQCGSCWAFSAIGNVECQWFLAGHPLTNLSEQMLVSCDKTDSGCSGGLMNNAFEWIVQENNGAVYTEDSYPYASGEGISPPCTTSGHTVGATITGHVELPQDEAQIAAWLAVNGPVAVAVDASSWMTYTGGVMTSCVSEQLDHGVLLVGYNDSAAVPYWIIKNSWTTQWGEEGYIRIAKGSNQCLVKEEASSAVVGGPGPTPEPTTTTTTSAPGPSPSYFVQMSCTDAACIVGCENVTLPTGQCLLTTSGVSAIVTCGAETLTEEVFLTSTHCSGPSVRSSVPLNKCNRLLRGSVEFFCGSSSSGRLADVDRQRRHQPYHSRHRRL

Molecular target: Cruzipain (Trypanosoma cruzi, UniProt P25779)
Test: Inhibition of epimastigote form of Trypanosoma cruzi Tulahuen 2 cruzain assessed as reduction in 7-amino-4-methylcoumarin release incubated for 20 mins folllowed by Z-FR-AMC substrate addition and measured up to 45 mins by fluorometric assay

- IC50: 0.153 µM
SMILES: CC/C(=N\NC(N)=S)c1cccc(Br)c1
